We go through 1 compound from ChEMBL document CHEMBL1136929 (J Med Chem, 2009).

Sequences of proteins named here, by UniProt entry; tags and fusion partners are left off.
UniProt P21554, whole entry: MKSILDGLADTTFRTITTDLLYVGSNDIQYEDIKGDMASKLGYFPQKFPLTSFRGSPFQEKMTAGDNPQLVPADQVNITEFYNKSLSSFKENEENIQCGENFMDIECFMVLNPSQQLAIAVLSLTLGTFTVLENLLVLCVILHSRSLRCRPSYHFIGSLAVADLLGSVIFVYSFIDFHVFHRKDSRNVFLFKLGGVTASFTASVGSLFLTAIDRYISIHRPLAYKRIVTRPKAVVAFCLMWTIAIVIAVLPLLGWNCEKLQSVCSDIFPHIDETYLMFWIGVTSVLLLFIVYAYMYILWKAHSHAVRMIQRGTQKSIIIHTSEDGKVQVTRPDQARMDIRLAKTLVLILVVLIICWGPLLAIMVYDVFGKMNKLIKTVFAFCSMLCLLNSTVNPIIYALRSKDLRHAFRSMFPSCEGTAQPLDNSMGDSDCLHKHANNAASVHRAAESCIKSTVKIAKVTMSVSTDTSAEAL

The target in the test is Cannabinoid receptor 1 (Homo sapiens, UniProt P21554). The test is described as follows: Displacement of [3H]CP-55940 from human recombinant CB1 receptor expressed in HEK293 cells. It is filed as cell-based. A digest of the protocol: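 HEK-293 membranes expressing human recombinant CB1 (Bmax 2.5 pmol/mg) or CB2 (Bmax 4.7 pmol/mg). Radioligand [3H]CP55,940 at 0.14 nM for CB1 and 0.084 nM for CB2. Nonspecific binding defined with 100 nM WIN55212-2. Incubated with increasing compound concentrations for 90 min at 30 °C. IC50 converted to Ki by Cheng-Prusoff. At least 3 experiments in duplicate.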

In the case of `Cc1ccc(Cn2nc(C(=O)N[C@@H]3C(C)(C)[C@@H]4CC[C@@]3(C)C4)cc2-c2ccc(Cl)c(C)c2)cc1` [SR-144528], the Ki (in general, the dissociation constant of the complex between target and ligand, obtained from inhibition or displacement) was found to be 437 nM.
